The source of these data is BindingDB's records for PubMed 1656026 (University of Nebraska, 1991).

Chains of the proteins cited; added tags and fusions are not shown.
UniProt P08913, whole entry: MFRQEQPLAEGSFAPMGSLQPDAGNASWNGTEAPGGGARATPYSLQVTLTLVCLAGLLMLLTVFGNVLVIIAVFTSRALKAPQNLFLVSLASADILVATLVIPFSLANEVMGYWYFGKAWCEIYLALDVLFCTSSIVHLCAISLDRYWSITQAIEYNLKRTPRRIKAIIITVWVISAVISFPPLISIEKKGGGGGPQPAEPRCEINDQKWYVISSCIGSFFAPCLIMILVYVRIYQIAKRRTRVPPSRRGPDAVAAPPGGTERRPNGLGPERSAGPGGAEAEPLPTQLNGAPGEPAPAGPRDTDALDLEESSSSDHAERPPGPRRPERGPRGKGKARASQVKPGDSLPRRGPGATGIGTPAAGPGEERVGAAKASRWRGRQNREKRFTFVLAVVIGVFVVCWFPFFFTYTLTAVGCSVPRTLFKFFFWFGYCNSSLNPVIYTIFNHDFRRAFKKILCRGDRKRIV
UniProt P19328, whole entry: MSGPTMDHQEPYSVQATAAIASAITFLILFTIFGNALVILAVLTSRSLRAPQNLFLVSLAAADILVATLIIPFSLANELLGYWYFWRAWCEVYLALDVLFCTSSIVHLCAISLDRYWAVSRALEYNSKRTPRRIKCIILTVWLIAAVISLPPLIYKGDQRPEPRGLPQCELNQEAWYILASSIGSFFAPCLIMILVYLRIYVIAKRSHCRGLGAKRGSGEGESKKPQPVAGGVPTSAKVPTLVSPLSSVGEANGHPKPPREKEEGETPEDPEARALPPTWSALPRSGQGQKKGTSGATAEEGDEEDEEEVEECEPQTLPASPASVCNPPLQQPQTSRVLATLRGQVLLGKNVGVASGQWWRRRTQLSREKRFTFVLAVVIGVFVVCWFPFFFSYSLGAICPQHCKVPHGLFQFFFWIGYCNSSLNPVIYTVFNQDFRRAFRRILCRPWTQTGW

Assay [1] deals with Alpha-2A adrenergic receptor (Homo sapiens, UniProt P08913).
Assay [2] deals with Alpha-2B adrenergic receptor (Rattus norvegicus, UniProt P19328).

Usually Ki stands for the equilibrium dissociation constant of an inhibitor or competing ligand from its target. Higher therefore signals lower affinity.

`Clc1ccc2nsnc2c1NC1=NCCN1` returned a Ki in assay [1] of 62 nM.

In assay [2], `CSc1ccc2c(c1)N(CC[C@@H]1CCCCN1C)c1ccccc1S2` [10-[2-(1-Methyl-piperidin-2-yl)-ethyl]-2-methylsulfanyl-10H-phenothiazine (thioridazine)] gave a Ki of 259 nM.
